According to patent US7282508B2, “Substituted 4-phenyl-4-(1H-imidazol-2-yl)-piperidine derivatives and their use as selective non-peptide delta opioid agonists” (Janssen Pharmaceutica N.V., priority 2001, dated 2007):

Molecular target: cloned human δ opioid receptor (Homo sapiens, UniProt P41143)
Experiment: Radioligand binding, competitive inhibition of [3H]DPDPE
Conditions: Table 7; C6 glioma cell membranes, [3H]DPDPE 2 nM

## COC(=O)c1ccc(Cn2ccnc2C2(c3ccccc3)CCN(c3nc4ccccc4o3)CC2)cc1
  Agonist receptor binding (pIC50) delta: 8.5
